Test results: PubChem BioAssay (EPA / NIEHS)
Where “and” joins values, the source holds several entries; their conditions need not be identical. Equal values may be shown once. Only a part is listed here, and it is no random draw. The source holds several records for some structures; these can differ, active in one and inactive in another. Calls of active or inactive are those of the source. Rule for the calls: active = hit-call score of the fitted dose curve at least 0.9, where 1 is the maximum; inactive = score below 0.9.

test: ATG_PPRE_CIS: Attagene CIS-FACTORIAL HepG2 Assay for human Peroxisome Proliferator-activated Response Element (PPRE) (AID 2282958); details: HepG2 PPRE cis-element reporter, Attagene transcription factor profiling; actives raise or lower the signal

Row | SMILES | outcome | AC50
1 | CC(C)=CC1C(C(=O)OCN2C(=O)C3=C(CCCC3)C2=O)C1(C)C (stereo not drawn) | inactive | –
2 | C=CCC1=C(C)C(OC(=O)C2C(C=C(C)C)C2(C)C)CC1=O (stereo not drawn) | inactive | active: 13.7 µM [middle of 4 runs]
3 | O=c1[nH]c(=O)n(Cl)c(=O)n1Cl | inactive | –
4 | CC(C)CCCCCCCOC(=O)c1ccccc1C(=O)OCCCCCCCC(C)C | inactive | –
5 | CNC(=O)O/N=C/C(C)(C)S(C)(=O)=O | inactive | –
6 | COc1nc(C)nc(NC(=O)NS(=O)(=O)c2ccccc2Cl)n1 | inactive | –
7 | O=C(Cl)OCCOCCOC(=O)Cl | inactive | –
8 | O=NN1CCCCCC1 | inactive | –
9 | C#CC1(O)CCCCC1 | inactive | –
10 | Nc1ccc(N)cc1 | inactive | –
11 | CC(C)(C1CCC(O)CC1)C1CCC(O)CC1 (stereo not drawn) | inactive | –
12 | CCCCOC(=O)c1ccccc1C(=O)OCCCC | inactive | active: 55.6 µM and active: 100 µM and active: 50 µM
13 | CC[C@H](C)[C@H]1O[C@]2(C=C[C@@H]1C)C[C@@H]1C[C@@H](C/C=C(\C)[C@@H](O[C@H]3C[C@H](OC)[C@@H](O[C@H]4C[C@H](OC)[C@@H](O)[C@H](C)O4)[C@H](C)O3)[C@@H](C)/C=C/C=C3\CO[C@@H]4[C@H](O)C(C)=C[C@@H](C(=O)O1)[C@]34O)O2 (tested in a mixture with another compound) | inactive | –
14 | CCC(C)(c1ccc(O)cc1)c1ccc(O)cc1 | inactive | active: 50.2 µM
15 | COP(=S)(OC)Oc1nc(Cl)c(Cl)cc1Cl | – | active: 7.82 µM
16 | C[C@@H](Oc1ccc(Cl)cc1Cl)C(=O)O | – | active: 42.7 µM
17 | Cc1cc(Cl)ccc1OCC(=O)O | inactive | active: 21.4 µM
18 | CCc1cccc(C)c1N(C(=O)CCl)C(C)COC (stereo not drawn) | inactive | –

Row | SMILES | outcome | AC50
19 | COc1cc(Cl)c(OC)cc1Cl | – | active: 14.4 µM
20 | C=CC#N | inactive | –
21 | CCOP(=S)(OCC)SCn1c(=O)oc2cc(Cl)ccc21 | – | active: 20.7 µM
22 | CC(C)(C)c1ccc(CSc2cnn(C(C)(C)C)c(=O)c2Cl)cc1 | – | active: 0.592 µM
23 | CCCCC(CC)COC(=O)Cl (stereo not drawn) | inactive | –
24 | C[N+](C)=CCl | inactive | –
25 | Cn1c(-c2ccccc2)cc(-c2ccccc2)[n+]1C | inactive | –
26 | O=NN1CCCCCCC1 | inactive | –
27 | CN(C)N=O | inactive | –
28 | CCN(CC)C(=O)SCc1ccc(Cl)cc1 | – | active: 33.9 µM
29 | COC(=O)c1ccccc1S(=O)(=O)NC(=O)Nc1nc(C)cc(C)n1 | inactive | –
30 | COc1ccc(O)c(C(C)(C)C)c1 | – | active: 58.6 µM
31 | C=CC(Cl)CCl (stereo not drawn) | inactive | –
32 | CC(C)C1CCC(Cc2ccc(Cl)cc2)C1(O)Cn1cncn1 (stereo not drawn) | inactive | –
33 | Nc1nc(N)nc(Cl)n1 | inactive | –
34 | CCc1cccc(C)c1N(C(=O)CCl)[C@@H](C)COC | inactive | –
35 | CN/C(=N\[N+](=O)[O-])NCc1cnc(Cl)s1 | inactive | –

test: ATG_RORE_CIS: Attagene CIS-FACTORIAL HepG2 Assay for human RAR-related Orphan Receptor Element (RORE) (AID 2282959); details: HepG2 Attagene cis-factorial RORE reporter, mRNA; actives raise or lower the signal

Row | SMILES | outcome | AC50
36 | CC[C@H](C)[C@H]1O[C@]2(C=C[C@@H]1C)C[C@@H]1C[C@@H](C/C=C(\C)[C@@H](O[C@H]3C[C@H](OC)[C@@H](O[C@H]4C[C@H](OC)[C@@H](O)[C@H](C)O4)[C@H](C)O3)[C@@H](C)/C=C/C=C3\CO[C@@H]4[C@H](O)C(C)=C[C@@H](C(=O)O1)[C@]34O)O2 (tested in a mixture with another compound) | inactive | –
37 | CCc1cccc(C)c1N(C(=O)CCl)C(C)COC (stereo not drawn) | inactive | –
38 | COc1cc(Cl)c(OC)cc1Cl | inactive | –
39 | CCCCC(CC)COC(=O)Cl (stereo not drawn) | inactive | –
40 | C[N+](C)=CCl | inactive | –
41 | O=NN1CCCCCCC1 | inactive | –
42 | COC(=O)c1ccccc1S(=O)(=O)NC(=O)Nc1nc(C)cc(C)n1 | inactive | –
43 | COc1ccc(O)c(C(C)(C)C)c1 | – | active: 83.5 µM
44 | CCc1cccc(C)c1N(C(=O)CCl)[C@@H](C)COC | inactive | –
